By IC50 is commonly meant the concentration at which inhibition is half-maximal.

Protein sequences, listed by entry. Tags and fused reporters are not part of them. Lines headed by an entry give the natural chain unless they say otherwise; changes in a name come on top.
UniProt P43490: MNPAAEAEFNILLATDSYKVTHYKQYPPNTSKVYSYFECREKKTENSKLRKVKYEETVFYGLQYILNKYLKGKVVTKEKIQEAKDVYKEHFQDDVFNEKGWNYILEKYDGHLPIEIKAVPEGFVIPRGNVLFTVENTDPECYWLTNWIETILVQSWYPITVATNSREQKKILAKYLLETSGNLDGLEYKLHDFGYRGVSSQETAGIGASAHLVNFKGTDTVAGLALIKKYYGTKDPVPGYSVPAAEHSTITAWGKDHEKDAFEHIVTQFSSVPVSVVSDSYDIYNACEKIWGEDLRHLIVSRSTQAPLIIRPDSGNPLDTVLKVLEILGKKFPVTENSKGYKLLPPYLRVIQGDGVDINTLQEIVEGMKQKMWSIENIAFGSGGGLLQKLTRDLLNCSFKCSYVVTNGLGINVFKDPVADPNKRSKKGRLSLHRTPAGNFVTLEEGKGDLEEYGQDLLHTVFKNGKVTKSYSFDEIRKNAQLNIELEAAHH

Among the data in US9555039B2, “Piperidine derivatives and compositions for the inhibition of nicotinamide phosphoribosyltransferase (NAMPT)” (Forma TM, LLC., priority 2011, dated 2017) are IC50 values, retold here.

The first assay concerns the target T1, Recombinant His-tagged NAMPT (Homo sapiens, UniProt P43490).
T1 construct: His; host or cells: E. coli
As to the kind of experiment: Biochemical inhibition assay: NAMPT enzymatic reaction, NMN quantified by mass spectrometry. To be noted: 33 nM NAMPT, 1 μM NAM, 100 μM PRPP, 2.5 mM ATP, 30 minutes at room temperature; read-out: Biochem IC50. On the procedure: Biochemical Inhibition Assay
NAMPT Protein Purification
Recombinant His-tagged NAMPT was produced in E. coli cells, purified over a Ni column, and further purified over a size-exclusion column by XTAL Biostructures.
The NAMPT Enzymatic Reaction
The NAMPT enzymatic reactions were carried out in Buffer A (50 mM Hepes pH 7.5, 50 mM NaCl, 5 mM MgCl2, and 1 mM THP) in 96-well V-bottom plates. The compound titrations were performed in a separate dilution plate by serially diluting the compounds in DMSO to make a 100× stock. […] The compound and enzyme mix was incubated for 15 minutes at room temperature, then 10 μL of 10× substrate and co-factors in Buffer A were added to the test well to make a final concentration of 1 μM NAM, 100 μM 5-Phospho-D-ribose 1-diphosphate (PRPP), and 2.5 mM Adenosine 5′-triphosphate (ATP). The reaction was allowed to proceed for 30 minutes at room temperature, then was quenched with the addition of 11 μL of a solution of formic acid and L-Cystathionine to make a final concentration of 1% formic acid and 10 μM L-Cystathionine. Background and signal strength was determined by addition (or non-addition) of a serial dilution of NMN to a pre-quenched enzyme and cofactor mix.
A mass spectrometry-based assay was used to measure the Nampt reaction product (NMN) and the internal control (L-Cystathionine). NMN and L-Cystathionine were detected using the services of Biocius Lifesciences with the RapidFire system. In short, the NMN and L-Cystathionine are bound to a graphitic carbon cartridge in 0.1% formic acid, eluted in 30% acetonitrile buffer, and injected into a Sciex 4000 mass spectrometer. The components of the sample were ionized with electrospray ionization and the positive ions were detected. […] The fragments are quantified and the analyzed by the following method.
First the NMN signal is normalized to the L-Cystathionine signal by dividing the NMN signal by the L-Cystathionine signal for each well. The signal from the background wells are averaged and subtracted from the test plates.
Wherein x denotes the average signal of the compound treated wells and y denotes the average signal of the DMSO treated wells.
IC50s are Determined Using Excel and this Formula.
Wherein X denotes the compound concentration 1, Y denotes the compound concentration 2, XX denotes the % inhibition at compound concentration 1 (X), and YY denotes the % inhibition at compound concentration 2 (Y).
As for `O=C(NCCCCC1CCN(C(=O)c2cc(F)ccc2F)CC1)c1cc2ccncc2s1` [N-(4-{1-[(2,5-difluorophenyl)carbonyl]piperidin-4-yl}butyl)thieno[2,3-c]pyridine-2-carboxamide], the IC50 was found to be 7.6 nM.
On the same count and under the same terms, the same measure for `Cc1cccc(C(=O)N2CCC(CCCCNC(=O)c3cc4ccncc4s3)CC2)c1F` [N-(4-{1-[(2-fluoro-3-methylphenyl)carbonyl]piperidin-4-yl}butyl)thieno[2,3-c]pyridine-2-carboxamide]: 21.2 nM.
Regarding `COc1cc(OC)cc(C(=O)N2CCC(CCCCNC(=O)c3ccc4nccn4c3)CC2)c1` [N-(4-{1-[(3,5-dimethoxyphenyl)carbonyl]piperidin-4-yl}butyl)imidazo[1,2-a]pyridine-6-carboxamide], the 50% inhibitory concentration (IC50) was found to be 22.5 nM.
As for `O=C(NCCCCC1CCN(C(=O)c2cccc(Cl)c2)CC1)c1cc2cnccc2[nH]1` [N-(4-{1-[(3-chlorophenyl)carbonyl]piperidin-4-yl}butyl)-1H-pyrrolo[3,2-c]pyridine-2-carboxamide], the IC50 is 21.7 nM.
As for `COc1cccc(C(=O)N2CCC(CCCCNC(=O)c3cc4cnccc4[nH]3)CC2)c1` [N-(4-{1-[(3-methoxyphenyl)carbonyl]piperidin-4-yl}butyl)-1H-pyrrolo[3,2-c]pyridine-2-carboxamide], the IC50 is 24.8 nM.
Still for that read-out and setting: the same measure for `COc1cccc(C(=O)N2CCC(CCCCNC(=O)c3ccc4nccn4c3)CC2)c1` [N-(4-{1-[(3-methoxyphenyl)carbonyl]piperidin-4-yl}butyl)imidazo[1,2-a]pyridine-6-carboxamide]: 21.2 nM.
Still for that read-out and setting: the same measure for `O=C(NCCCCC1CCN(C(=O)c2ccc(F)cc2)CC1)c1cc2cnccc2[nH]1` [N-(4-{1-[(4-fluorophenyl)carbonyl]piperidin-4-yl}butyl)-1H-pyrrolo[3,2-c]pyridine-2-carboxamide]: 59.8 nM; for `COc1ccc(Cl)cc1C(=O)N1CCC(CCCCNC(=O)c2cc3cnccc3[nH]2)CC1` [N-(4-{1-[(5-chloro-2-methoxyphenyl)carbonyl]piperidin-4-yl}butyl)-1H-pyrrolo[3,2-c]pyridine-2-carboxamide]: 33.8 nM.
Still for that read-out and setting: the figure for `O=C(NCCCCC1CCN(C(=O)c2ccc(-n3cccn3)cc2)CC1)c1ccc2nccn2c1` [N-[4-(1-{[4-(1H-pyrazol-1-yl)phenyl]carbonyl}piperidin-4-yl)butyl]imidazo[1,2-a]pyridine-6-carboxamide] is 30.7 nM.

For a further assay, the system named is A2780 cells. As to the kind of experiment: In-vitro cell proliferation assay (SRB, 72 hours). Type of assay: cell-based. To be noted: Homo sapiens, sulforhodamine B (SRB) assay. As to the method:
In-Vitro Cell Proliferation Assay
After overnight incubation at 37° C. and 5% CO2, the compound titrations were performed in a separate dilution plate by serially diluting the compounds in DMSO to make a 1000× stock. The compounds were then further diluted to 10× final concentration in culture media, whereupon 20 μL of each dilution was added to the plated cells with controls (e.g. DMSO and blank) to make a final volume of 200 μL. The final DMSO concentration in each well was 0.1%. The plates were then incubated for 72 hours at 37° C. in a 5% CO2 incubator. The number of viable cells was then assessed using sulforhodamine B (SRB) assay. Cells were fixed at 4° C. for 1 hour with the addition of 50 μL 30% trichloroacetic acid (TCA) to make a final concentration of 6% TCA. The plates were washed four times with H2O and allowed to dry for at least 1 hour, whereupon 100 μL of a 4% SRB in 1% acetic acid solution was added to each well and incubated at room temperature for at least 30 minutes. The plates were then washed three times with 1% acetic acid, dried, and treated with 100 μL of 10 mM Tris-Base solution. The plates were then read in a microplate reader at an absorbance of 570 nm. Background was generated on a separate plate with media only.
Method for Determining % Inhibition
First, the signals from the background plate are averaged, then the background was subtracted from the test plates.
wherein x denotes the average signal of the compound-treated cells and y denotes the average signal of the DMSO-treated cells.
wherein X denotes the compound concentration 1, Y denotes the compound concentration 2, XX denotes the % inhibition at compound concentration 1 (X), and YY denotes the % inhibition at compound concentration 2 (Y).
A general note: In SRB staining, fixed cells bind dye roughly in proportion to their protein.
For the compound `O=C(NCCCCC1CN(C(=O)c2ccccc2)C1)c1cc2cnccc2[nH]1` [N-[4-(1-benzoylazetidin-3-yl)butyl]-1H-pyrrolo[3,2-c]pyridine-2-carboxamide], the IC50 worked out at 76.9 nM.
With `CC(C)c1ncoc1C(=O)N1CCC(CCCCNC(=O)c2cc3ccncc3s2)CC1` [N-[4-(1-{[4-(propan-2-yl)-1,3-oxazol-5-yl]carbonyl}piperidin-4-yl)butyl]thieno[2,3-c]pyridine-2-carboxamide], the IC50 stood at 7.6 nM.
`COCc1ccc(C(=O)N2CCC(CCCCNC(=O)c3cc4ccncc4s3)CC2)nc1` [N-[4-(1-{[5-(methoxymethyl)pyridin-2-yl]carbonyl}piperidin-4-yl)butyl]thieno[2,3-c]pyridine-2-carboxamide] yielded an IC50 of 30.2 nM.
